The values that follow come from patent US20230003721A1, “MITOTHERAPEUTICS FOR THE TREATMENT OF BRAIN DISORDERS” (The University of Florida Research Foundation, Inc., priority 2019, published 2023).

The subject of this data set is primary forebrain neurons. Nature of the data set: Live-Dead assay (propidium iodide / fluorescein diacetate). To be noted: 48 h; peroxide 75 μM, glutamate 25 μM, Aβ(1-42) 10 μM.

For `CC(C)(C)OO` [Peroxide, tert-butyl hydroperoxide], the “death among neurons compared to control” value turned out to be 46%.
